Where a name gives a salt, the structure may show the parent alone. Read-outs that look alike come from different tables or passages of the source.
Biological target: BIR3 domain of human cIAP-1 (residues 267-363) (Homo sapiens (Human), UniProt Q13490)
Test: cIAP-1 in vitro competitive displacement binding assay (fluorescence polarization; Probe A AVPIK(5&6FAM)-amide or Probe B AbuRPFK(5&6FAM)-amide)
Settings: read-out: IC50 or PI cIAP1: IC50

## C[C@@H]1CN(CC(=O)N2CC(C)(C)c3cnc(Cc4ccc(F)cc4F)cc32)[C@@H](CN2CCCC2)CN1 [Example 220, 1-{6-[(2,4-Difluorophenyl)methyl]-3,3-dimethyl-1H,2H,3H-pyrrolo[3,2-c]pyridin-1-yl}-2-[(2R,5R)-5-methyl-2-(pyrrolidin-1-ylmethyl)piperazin-1-yl]ethan-1-one dihydrochloride]
  IC50: 0.014 µM

## COC[C@H]1CN[C@H](C)CN1CC(=O)N1CC(C)(C)c2cnc(C(OC)c3ccccc3)cc21 (stereo partly drawn) [Example 132, 1-{6-[Methoxy(phenyl)methyl]-3,3-dimethyl-1H,2H,3H-pyrrolo[3,2-c]pyridin-1-yl}-2-[(2R,5R)-2-(methoxymethyl)-5-methylpiperazin-1-yl]ethan-1-one dihydrochloride]
  IC50: 0.045 µM

## CC(C)CC(F)(F)c1cnc2c(c1)N(C(=O)CN1C[C@@H](C)NC[C@@H]1CN1CCOCC1)CC2(C)C [Example 235, 1-[6-(1,1-Difluoro-3-methylbutyl)-3,3-dimethyl-1H,2H,3H-pyrrolo[3,2-b]pyridin-1-yl]-2-[(2R,5R)-5-methyl-2-(morpholin-4-ylmethyl)piperazin-1-yl]ethan-1-one]
Probe B AbuRPFK(5&6FAM)-amide
  IC50: 0.021 µM
